Literature values in US5202314A, “10-thioethyl-steroids” (Roussel Uclaf, priority 1991, dated 1993).

Tested on: Aromatase
Settings: attacks enzymatic processes other than that leading from androgens to estrogens; cited from earlier work

CCC1(c2ccc(N)cc2)CCC(=O)NC1=O (stereo not shown) [Aminoglutethimide]
specificity to Aromatase: not to be specific to Aromatase
